{
  "source": "patent US10690666B2",
  "about": "“Methods and compositions for modulating TH-GM cell function” (National University of Singapore, priority 2014, dated 2020)",
  "type_in_all_cases": "cell-based, mouse",
  "key": {"STAT5": {"system": "STAT5", "experiment": "Cytokine-induced STAT5 activation in CD4+ T cells, immunoblotting", "method": "(§1) FIGS. 10A-10C show STAT5-mediated GM-CSF induction is independent of IL-23 or IL-1β signaling. In FIG. 10A, purified CD4^+ T cells were cultured with TGF-β and IL-6 for 3 days, followed by starvation for 6 h. Then cells were treated with various cytokines for 30 min, and pSTAT3 and pSTAT5 was determined by immunoblotting. STAT3 and STAT5 were further detected after stripping. […] The RT-PCR data were normalized to β-Actin. In FIG. 10C, splenocytes were obtained from MOG35-55/CFA-immunized WT mice before disease onset and challenged with MOG35-55 (20 μg/ml) in the absence or presence of IL-2 for 48 h. The frequencies of GM-CSF^+ and IL-17^+ cells among CD4^+CD44^hi T cells were measured by flow cytometry. *p<0.05.\n(§2) FIGS. 17A-17E illustrate that IL-7 but not IL-2 induces STAT5 activation and GM-CSF expression in naïve CD4^+ T cells. FIGS. 17A-17C show flow cytometry of CD25 and CD127 on the surface of naïve CD4^+ T cells or cells activated with anti-CD3 and anti-CD28 at various time points as indicated. Activation of STAT5 in naïve CD4^+ T cells stimulated with IL-2 or IL-7 for 30 min (FIG. 17D). […] The RT-PCR data were normalized to β-Actin, and expression in naïve T cells activated for 2 h without cytokine was set to 1.\nAs shown in FIGS. 18A and 18B, CD4^+ T cells were activated with anti-CD3 and anti-CD28 for 3 days. After resting in fresh medium, cells were stimulated with IL-2 or IL-7 at various time points. The pTyr-STAT5 and β-Actin were detected by immunoblotting (FIG. 18A). GM-CSF mRNA expression was measured by RT-PCR (FIG. 18B). The RT-PCR data were normalized to β-Actin, and expression in cells without cytokine stimulation was set to 1. The ChIP assay shown in FIG. 18C was performed with normal IgG or STAT5-specific antibody. The binding of antibodies to Csf2 promoter region was detected by RT-PCR.\nNext, the mechanism by which STAT5 regulates GM-CSF expression was investigated. […] Furthermore, IL-1R1 expression was not changed, whereas IL-23Rα expression was increased in Stat5^−/− CD4^+ T cells (FIG. 10B). […] Therefore, the effect of these two cytokines on GM-CSF induction in autoreactive T cells was further examined. Splenocytes derived from MOG35-55-immunized wild-type mice were challenged with MOG35-55 alone or plus IL-2. GM-CSF and IL-17 production by CD4^+ T cells were analyzed by intracellular cytokine staining. […] Furthermore, IL-7 carried out this function in a STAT5-dependent manner, as Stat5 deletion abrogated its effect on GM-CSF expression as assessed by intracellular cytokine staining and ELISA (FIG. 11A, lower panels, and FIG. 11B).\nNext, it was determined whether IL-2 signaling could influence TH-GM differentiation from naïve CD4^+ T cells. […]"}, "CD4+CD44hi T cells": {"system": "CD4+CD44hi T cells", "experiment": "MOG35-55 challenge of splenocytes from immunized mice, GM-CSF expression", "settings": "MOG35-55 (20 μg/ml) plus cytokine, 48 h", "method": "as §1\nSplenocytes were obtained from MOG35-55/CFA-immunized Stat5^+/+ and Stat5^−/− mice before disease onset and challenged with MOG35-55 (20 μg/ml) in the absence or presence of IL-7 for 48 h. Frequencies of GM-CSF^+ and IL-17^+ cells among CD4^+CD44^hi T cells were measured by flow cytometry (FIG. 11A). GM-CSF secretion was measured by ELISA (FIG. 11B). Data represent two independent experiments with two to three mice per group. […]\nNext, the mechanism by which STAT5 regulates GM-CSF expression was investigated. […] GM-CSF and IL-17 production by CD4^+ T cells were analyzed by intracellular cytokine staining. […]"}, "naïve CD4+ T cells [1]": {"system": "naïve CD4+ T cells", "experiment": "In vitro TH-GM (GM-CSF-expressing TH) differentiation from naïve CD4+ T cells", "settings": "anti-CD3 and anti-CD28 plus cytokine or antibody", "method": "FIGS. 13A and 13B depict the differentiation of GM-CSF-expressing TH cells is distinct from TH17 and TH1. Naïve CD4^+ T cells were primed with plate-bound anti-CD3 and soluble anti-CD28 in the presence of a combination of various cytokines and neutralizing antibodies as indicated. GM-CSF, IL-17 and IFN-γ expression was analyzed by intracellular staining (FIG. 13A) or RT-PCR (FIG. 13B)\nFIGS. 14A-14D show the effect of IL-2 and IL-6 on TH-GM differentiation from naïve T cells. GM-CSF and IFN-γ expression in naive CD4^+ T cells activated for 72 h with anti-CD3 alone or plus anti-CD28 (FIG. 14A). […] The frequencies of GM-CSF^+ and IL-17^+ cells were measured by intracellular staining (FIG. 14B). […] The frequencies of GM-CSF^+ and IL-17^+ cells were analyzed. […] The frequencies of GM-CSF^+, IL-17^+ and IFN-γ^+ cells were analyzed.\nFIGS. 15A-15F depict IL-7-STAT5 signaling programs TH-GM differentiation from naïve precursor cells. […] GM-CSF and IFN-γ expression was analyzed by intracellular staining (FIG. 15A) or ELISA (FIG. 15B). […] GM-CSF, IL-17 and IFN-γ expression was analyzed by intracellular cytokine staining (FIG. 15C). GM-CSF secretion was measured by ELISA (FIG. 15D). […] The binding of antibodies to Csf2 promoter region was detected by RT-PCR (FIG. 15F). […]"}, "naïve CD4+ T cells [2]": {"system": "naïve CD4+ T cells", "experiment": "GM-CSF mRNA expression in naïve CD4+ T cells stimulated with IL-2 or IL-7, RT-PCR", "settings": "anti-CD3 and anti-CD28 plus cytokine", "method": "as §2\nTotal RNA was extracted from cells with RNeasy kit (Qiagen) according to the manufacturer's instruction. Complementary DNA (cDNA) was synthesized with Superscript reverse transcriptase (Invitrogen). Gene expressions were measured by 7500 real-time PCR system (Applied Biosystems) with SYBR qPCR kit (KAPA). Actinb, Gapdh or Rn18S was used as internal control. The primer sequences are available upon request.\nNext, it was determined whether IL-2 signaling could influence TH-GM differentiation from naïve CD4^+ T cells. The addition of IL-2 or antibody against IL-2 only had modest effect on the frequency of GM-CSF^+ cells (FIG. 14D), indicating a minimal effect of IL-2 on TH-GM differentiation. […] Thus, the minimal effect of IL-2 at least in part is due to the unresponsiveness of naïve CD4^+ T cells to IL-2 stimulation."}},
  "data": [
    {"substance": "IL-2: cytokine (R&D Systems)", "values": [
      {"measurement": "STAT5 activation, Csf2 promoter binding and GM-CSF mRNA in activated CD4+ T cells", "setting": "STAT5; CD4+ T cells activated 3 days, rested, then cytokine", "value": "induced STAT5 activation, Csf2 promoter binding and GM-CSF mRNA upregulation"},
      {"measurement": "STAT5 activation (tyrosine phosphorylation)", "setting": "STAT5; CD4+ T cells cultured with TGF-β and IL-6 3 days, starved 6 h, cytokine 30 min", "value": "potently activated STAT5"},
      {"measurement": "duration of STAT5 activation in activated CD4+ T cells", "setting": "STAT5; compared with IL-7", "value": "prolonged STAT5 activation"},
      {"measurement": "STAT5 activation in naïve CD4+ T cells", "setting": "STAT5; naïve CD4+ T cells, cytokine 30 min", "value": "but not IL-2"},
      {"measurement": "frequency of GM-CSF+ T cells / GM-CSF expression in CD4+CD44hi T cells", "setting": "CD4+CD44hi T cells", "value": "modest effects"},
      {"measurement": "GM-CSF-expressing cell differentiation from naïve CD4+ T cells", "setting": "naïve CD4+ T cells [1]", "value": "modest effect"},
      {"measurement": "GM-CSF mRNA expression in naïve CD4+ T cells", "setting": "naïve CD4+ T cells [2]", "value": "but not IL-2"}
    ]}
  ]
}
